Laboratory results as given in article PMC10870044, “The Interplay Between HIF‐1α and EZH2 in Lung Cancer and Dual‐Targeted Drug Therapy” (Advanced Science, 2023).

Test system: EZH2
Experiment: Western blot of EZH2 substrate H3K27me3 after HIF-1 inhibitors
Conditions: A549 and H460 cell lines; EZH2 protein expression not affected

`N[C@@H](Cc1ccc([N+]([O-])(CCCl)CCCl)cc1)C(=O)O` was tested, and the “level of the EZH2 substrate H3K27me3” value was “increase in the level of the EZH2 substrate H3K27me3”.
